Tested on: E. coli E/2/64
Assay: Lysozyme/cecropin synergism against E. coli (plate growth)
Details: 10 μg, 1 mg, and 10 mg per milliliter; 10^−1 and 10^−3 dilutions

Substance: Lysozyme
- growth of E. coli: positive growth of E. coli
